Assay: Phase 1 MAD study of ALT-801: adverse events (TEAEs), safety overview

SMILES: CC[C@H](C)[C@H](NC(=O)[C@H](Cc1ccccc1)NC(=O)[C@H](CCC(=O)O)NC(=O)[C@@H]1CCCCNC(=O)CC[C@H](NC(=O)[C@H](CC(=O)O)NC(=O)[C@H](CC(C)C)NC(=O)[C@H](Cc2ccc(O)cc2)NC(=O)[C@H](CCCCN)NC(=O)[C@H](CO)NC(=O)[C@H](Cc2ccc(O)cc2)NC(=O)[C@H](CC(=O)O)NC(=O)[C@H](CO)NC(=O)[C@@H](NC(=O)[C@H](Cc2ccccc2)NC(=O)[C@@H](NC(=O)CNC(=O)[C@H](CCC(N)=O)NC(=O)C(C)(C)NC(=O)[C@@H](N)Cc2c[nH]cn2)[C@@H](C)O)[C@@H](C)O)C(=O)N[C@@H](CCCCNC(=O)[C@H]2O[C@@H](OCCCCCCCCCCCCCCCCCC(=O)O)[C@H](O)[C@@H](O)[C@@H]2O)C(=O)N[C@@H](C)C(=O)N[C@@H](C)C(=O)N1)C(=O)N[C@@H](CCC(N)=O)C(=O)N[C@@H](Cc1c[nH]c2ccccc12)C(=O)N[C@@H](CC(C)C)C(=O)N[C@@H](CC(C)C)C(=O)N[C@@H](CCC(N)=O)C(=O)N[C@H](C(N)=O)[C@@H](C)O [ALT-801, pemvidutide]
- TEAE Injection site dermatitis; Mild; % (Overall (N = 27)): (3.7%)
- TEAE Injection site dermatitis; Mild; n (Overall (N = 27)): 1
- TEAE Injection site dermatitis; Moderate; % (Overall (N = 27)): (0.0%)
- TEAE Injection site dermatitis; Moderate; n (Overall (N = 27)): 0
- TEAE Injection site dermatitis; PLT; % (Overall (N = 27)): (0.0%)
- TEAE Injection site dermatitis; PLT; n (Overall (N = 27)): 0
- TEAE Injection site dermatitis; Severe; % (Overall (N = 27)): (0.0%)
- TEAE Injection site dermatitis; Severe; n (Overall (N = 27)): 0
- TEAE Nausea; Mild; % (Overall (N = 27)): (40.7%)
- TEAE Nausea; Mild; n (Overall (N = 27)): 11
- TEAE Nausea; Moderate; % (Overall (N = 27)): (25.9%)
- TEAE Nausea; Moderate; n (Overall (N = 27)): 7
- TEAE Nausea; PLT; % (Overall (N = 27)): (0.0%)
- TEAE Nausea; PLT; n (Overall (N = 27)): 0
- TEAE Nausea; Severe; % (Overall (N = 27)): (0.0%)
- TEAE Nausea; Severe; n (Overall (N = 27)): 0
- TEAE Palpitation; Mild; % (Overall (N = 27)): (3.7%)
- TEAE Palpitation; Mild; n (Overall (N = 27)): 1
- TEAE Palpitation; Moderate; % (Overall (N = 27)): (0.0%)
- TEAE Palpitation; Moderate; n (Overall (N = 27)): 0
- TEAE Palpitation; PLT; % (Overall (N = 27)): (0.0%)
- TEAE Palpitation; PLT; n (Overall (N = 27)): 0
- TEAE Palpitation; Severe; % (Overall (N = 27)): (0.0%)
- TEAE Palpitation; Severe; n (Overall (N = 27)): 0
- TEAE Peripheral swelling; Mild; % (Overall (N = 27)): (0.0%)
- TEAE Peripheral swelling; Mild; n (Overall (N = 27)): 0
- TEAE Peripheral swelling; Moderate; % (Overall (N = 27)): (0.0%)
- TEAE Peripheral swelling; Moderate; n (Overall (N = 27)): 0
- TEAE Peripheral swelling; PLT; % (Overall (N = 27)): (0.0%)
- TEAE Peripheral swelling; PLT; n (Overall (N = 27)): 0
- TEAE Peripheral swelling; Severe; % (Overall (N = 27)): (0.0%)
- TEAE Peripheral swelling; Severe; n (Overall (N = 27)): 0
- TEAE Rectal haemorrhage; Mild; % (Overall (N = 27)): (7.4%)
- TEAE Rectal haemorrhage; Mild; n (Overall (N = 27)): 2
- TEAE Rectal haemorrhage; Moderate; % (Overall (N = 27)): (0.0%)
- TEAE Rectal haemorrhage; Moderate; n (Overall (N = 27)): 0
- TEAE Rectal haemorrhage; PLT; % (Overall (N = 27)): (0.0%)
- TEAE Rectal haemorrhage; PLT; n (Overall (N = 27)): 0
- TEAE Rectal haemorrhage; Severe; % (Overall (N = 27)): (0.0%)
- TEAE Rectal haemorrhage; Severe; n (Overall (N = 27)): 0
- TEAE Tachycardia; Mild; % (Overall (N = 27)): (3.7%)
- TEAE Tachycardia; Mild; n (Overall (N = 27)): 1
- TEAE Tachycardia; Moderate; % (Overall (N = 27)): (0.0%)
- TEAE Tachycardia; Moderate; n (Overall (N = 27)): 0
- TEAE Tachycardia; PLT; % (Overall (N = 27)): (0.0%)
- TEAE Tachycardia; PLT; n (Overall (N = 27)): 0
- TEAE Tachycardia; Severe; % (Overall (N = 27)): (0.0%)
- TEAE Tachycardia; Severe; n (Overall (N = 27)): 0
- TEAE Tooth impacted; Mild; % (Overall (N = 27)): (0.0%)
- TEAE Tooth impacted; Mild; n (Overall (N = 27)): 0
- TEAE Tooth impacted; Moderate; % (Overall (N = 27)): (0.0%)
- TEAE Tooth impacted; Moderate; n (Overall (N = 27)): 0
- TEAE Tooth impacted; PLT; % (Overall (N = 27)): (0.0%)
- TEAE Tooth impacted; PLT; n (Overall (N = 27)): 0
- TEAE Tooth impacted; Severe; % (Overall (N = 27)): (0.0%)
- TEAE Tooth impacted; Severe; n (Overall (N = 27)): 0
- TEAE Toothache; Mild; % (Overall (N = 27)): (3.7%)
- TEAE Toothache; Mild; n (Overall (N = 27)): 1
- TEAE Toothache; Moderate; % (Overall (N = 27)): (0.0%)
- TEAE Toothache; Moderate; n (Overall (N = 27)): 0
- TEAE Toothache; PLT; % (Overall (N = 27)): (0.0%)
- TEAE Toothache; PLT; n (Overall (N = 27)): 0
- TEAE Toothache; Severe; % (Overall (N = 27)): (0.0%)
- TEAE Toothache; Severe; n (Overall (N = 27)): 0
- TEAE Vessel puncture site pain; Mild; % (Overall (N = 27)): (3.7%)
- TEAE Vessel puncture site pain; Mild; n (Overall (N = 27)): 1
- TEAE Vessel puncture site pain; Moderate; % (Overall (N = 27)): (0.0%)
- TEAE Vessel puncture site pain; Moderate; n (Overall (N = 27)): 0
- TEAE Vessel puncture site pain; PLT; % (Overall (N = 27)): (0.0%)
- TEAE Vessel puncture site pain; PLT; n (Overall (N = 27)): 0
- TEAE Vessel puncture site pain; Severe; % (Overall (N = 27)): (0.0%)
- TEAE Vessel puncture site pain; Severe; n (Overall (N = 27)): 0
- TEAE Vomiting; Mild; % (Overall (N = 27)): (25.9%)
- TEAE Vomiting; Mild; n (Overall (N = 27)): 7
- TEAE Vomiting; Moderate; % (Overall (N = 27)): (14.8%)
- TEAE Vomiting; Moderate; n (Overall (N = 27)): 4
- TEAE Vomiting; PLT; % (Overall (N = 27)): (0.0%)
- TEAE Vomiting; PLT; n (Overall (N = 27)): 0
- TEAE Vomiting; Severe; % (Overall (N = 27)): (0.0%)
- TEAE Vomiting; Severe; n (Overall (N = 27)): 0
- TEAE Cough, maximum severity Mild, subjects % (Overall ALT-801 (N = 27)): (3.7%)
- TEAE Cough, maximum severity Mild, subjects n (Overall ALT-801 (N = 27)): 1
- TEAE Cough, maximum severity Moderate, subjects % (Overall ALT-801 (N = 27)): (0.0%)
- TEAE Cough, maximum severity Moderate, subjects n (Overall ALT-801 (N = 27)): 0
- TEAE Cough, maximum severity PLT, subjects % (Overall ALT-801 (N = 27)): (0.0%)
- TEAE Cough, maximum severity PLT, subjects n (Overall ALT-801 (N = 27)): 0
- TEAE Cough, maximum severity Severe, subjects % (Overall ALT-801 (N = 27)): (0.0%)
- TEAE Cough, maximum severity Severe, subjects n (Overall ALT-801 (N = 27)): 0
- TEAE Dermatitis contact, maximum severity Mild, subjects % (Overall ALT-801 (N = 27)): (14.8%)
- TEAE Dermatitis contact, maximum severity Mild, subjects n (Overall ALT-801 (N = 27)): 4

— patent US12171806B2, “Therapeutic regimens and methods for lowering blood glucose and/or body weight using GLP-1R and GCGR balanced agonists” (priority 2021, dated 2024)
